Earlier results as cited in publication PMC10985906, “Anticholinesterase activities of novel isoindolin-1,3-dione-based acetohydrazide derivatives: design, synthesis, biological evaluation, molecular dynamic study” (BMC Chemistry, 2024).

By UniProt entry, the sequences of proteins in these tests, tags left out. Residues count along the entry.
UniProt P22303, 32-614 limits assumed: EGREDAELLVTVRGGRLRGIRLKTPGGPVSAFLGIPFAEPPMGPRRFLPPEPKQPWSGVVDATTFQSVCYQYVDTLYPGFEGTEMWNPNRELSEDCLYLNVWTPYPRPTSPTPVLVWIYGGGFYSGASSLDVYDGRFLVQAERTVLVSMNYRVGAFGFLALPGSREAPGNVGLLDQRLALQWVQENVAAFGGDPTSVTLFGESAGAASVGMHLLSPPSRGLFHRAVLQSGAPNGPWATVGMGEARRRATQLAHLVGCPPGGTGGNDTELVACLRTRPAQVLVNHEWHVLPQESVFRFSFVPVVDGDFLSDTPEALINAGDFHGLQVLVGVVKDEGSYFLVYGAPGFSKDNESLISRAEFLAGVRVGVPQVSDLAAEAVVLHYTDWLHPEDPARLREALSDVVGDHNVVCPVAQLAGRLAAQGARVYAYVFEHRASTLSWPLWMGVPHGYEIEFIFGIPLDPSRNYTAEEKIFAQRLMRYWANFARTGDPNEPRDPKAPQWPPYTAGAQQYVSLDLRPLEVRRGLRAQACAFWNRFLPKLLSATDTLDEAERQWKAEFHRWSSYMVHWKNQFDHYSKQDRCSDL

Target: AChE (Homo sapiens, UniProt P22303)
Settings: read-out: AChE IC50; previously reported; cited from earlier work

Structure (SMILES): Cc1nn(CC(=O)N/N=C/c2ccccc2)c(=O)n1-c1ccc(C(=O)N/N=C/c2ccccc2)cc1
- IC50: 46.5 nM
